# Measured melting point values of organic chemicals

Data: OPERA 2.9 data sets, kmansouri/OPERA on GitHub.

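The numbers are reported measurements, compiled and curated for the OPERA QSAR suite. One number stands for a compound and property, with no spread given. How each value was measured is not recorded, so precision varies. The measured form (salt, isomer or mixture) is not always the one drawn. Unmarked limits or estimates from the upstream databases cannot be ruled out.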

Melting points are in °C. "n/a" marks a cell with nothing listed here.

compound,name,MP (°C)
CCC(=O)CC#N,3-oxopentanenitrile,28.5
CCCC1CCC(C2CCC(C(F)(F)Oc3cc(F)c(F)c(F)c3)CC2)CC1 (stereo unspecified),n/a,41.9
O=C(CCl)c1ccc(C2CCCCC2)cc1,2-Chloro-1-(4-cyclohexylphenyl)ethan-1-one,184
O=[N+]([O-])c1ccccc1-c1ccc(Cl)cc1,4'-Chloro-2-nitrobiphenyl,62.5
CCOc1ccc(C#N)cn1,6-Ethoxypyridine-3-carbonitrile,98
CCCS(=O)(=O)Nc1ccc(F)c(C(=O)c2cn(C(=O)c3c(Cl)cccc3Cl)c3ncc(-c4ccc(Cl)cc4)cc23)c1F,n/a,191
CN(C)Cc1n[nH]c(=S)o1,"5-[(Dimethylamino)methyl]-1,3,4-oxadiazole-2(3H)-thione",203
Nc1nc(-c2sccc2Br)cs1,"4-(3-Bromothiophen-2-yl)-1,3-thiazol-2-amine",152
CC1(C)CO1,"Oxirane, 2,2-dimethyl-",-66.1
O=C(Oc1cccc2cccc(OC(=O)c3ccccc3)c12)c1ccccc1,"1,8-Naphthylene dibenzoate",179
O=C(O)CNC(=O)C12CC3CC(CC(C3)C1)C2,"N-(Tricyclo[3.3.1.1~3,7~]decane-1-carbonyl)glycine",146
CC1C(C)(C)C2=C(C(=O)CCC2)C1(C)C (stereo unspecified),Cashmeran,33
O=Cc1ccc(-c2nc3ccccc3s2)o1,"5-(1,3-benzothiazol-2-yl)-2-furaldehyde",178
CC(C)C(NC(=O)c1ccc(Cl)cc1)C(=O)O (stereo unspecified),2-(4-Chloro-benzoylamino)-3-methyl-butyric acid,198
O=C(O)Cn1nc(O)ccc1=O,(3-Hydroxy-6-oxopyridazin-1(6H)-yl)acetic acid,236
Nc1ccc(S(=O)(=O)Nc2ccccc2Cl)cc1,4-Amino-N-(2-chlorophenyl)benzene-1-sulfonamide,160
COC(=O)CN(c1cc(NC(C)=O)c(N=Nc2c(Cl)cc([N+](=O)[O-])cc2C#N)cc1OC)C(C)C(=O)OC (stereo unspecified),n/a,166.4
CC(=O)Nc1ccc(-c2ccc(NC(C)=O)cc2)cc1,"N,N'-Diacetylbenzidine",328.4
O=C1CC2(CCCC2)C(=O)N1,"2-azaspiro[4.4]nonane-1,3-dione",106
O=C(O)c1cc2ccc(OC(F)(F)F)cc2[nH]1,6-(Trifluoromethoxy)-1H-indole-2-carboxylic acid,161
COc1ccc(Cl)cc1CC#N,(5-chloro-2-methoxyphenyl)acetonitrile,53
O=C(O)COc1ccc(Cl)cc1Br,2-(2-bromo-4-chlorophenoxy)acetic acid,124
Cc1ccc(-c2csc(N)n2)o1,4-(5-methylfuran-2-yl)thiazol-2-amine,103
C[C@]12CCC(=O)C=C1CC[C@@H]1[C@@H]2CC[C@@]2(C)[C@H]1CC[C@@]2(O)CCCO,(17beta)-17-Hydroxy-17-(3-hydroxypropyl)androst-4-en-3-one,163.6
NS(=O)(=O)c1ccc2c(c1)CCCN2,"1,2,3,4-Tetrahydroquinoline-6-sulfonamide",162
Cc1ccc(C(=O)C(Br)CC(=O)O)cc1 (stereo unspecified),3-Bromo-4-oxo-4-p-tolyl-butyric acid,117
Nc1ccc2c(c1)OC1(CCCCC1)O2,n/a,66
COC(=O)c1ccc(C)c(NC(=O)CCl)c1,Methyl 3-(2-chloroacetamido)-4-methylbenzoate,136
COCc1ccc(COC)cc1,"1,4-Bis(methoxymethyl)benzene",-6.3
COc1cc(C=O)cc(OC)c1OCc1ccccc1,"Benzaldehyde, 3,5-dimethoxy-4-(phenylmethoxy)-",63

Repeated from above, the 3 entries with the highest MP:

compound,name,MP (°C)
CC(=O)Nc1ccc(-c2ccc(NC(C)=O)cc2)cc1,"N,N'-Diacetylbenzidine",328.4
O=C(O)Cn1nc(O)ccc1=O,(3-Hydroxy-6-oxopyridazin-1(6H)-yl)acetic acid,236
CN(C)Cc1n[nH]c(=S)o1,"5-[(Dimethylamino)methyl]-1,3,4-oxadiazole-2(3H)-thione",203